The target in assay [1] is Cannabinoid receptor 1 (Rattus norvegicus, UniProt P20272). The experiment in a line: Binding affinity to rat CB1 receptor.
Assay [2] is filed under the species Homo sapiens. The experiment in a line: Selectivity ratio of Ki for human CB1 receptor to Ki for human CB2 receptor.
The target in assay [3] is T1, Cannabinoid receptor 2 (Homo sapiens, UniProt P34972). The experiment in a line: Binding affinity to human CB2 receptor.
In assay [4] the target is T1, Cannabinoid receptor 2. The experiment in a line: Displacement of [3H]HU-243 from human CB2 receptor. Background: In a radioligand displacement assay an active substance lowers the binding of a labelled ligand.

Amino acid sequences for entries named in this document (tags omitted).
UniProt P20272, whole entry: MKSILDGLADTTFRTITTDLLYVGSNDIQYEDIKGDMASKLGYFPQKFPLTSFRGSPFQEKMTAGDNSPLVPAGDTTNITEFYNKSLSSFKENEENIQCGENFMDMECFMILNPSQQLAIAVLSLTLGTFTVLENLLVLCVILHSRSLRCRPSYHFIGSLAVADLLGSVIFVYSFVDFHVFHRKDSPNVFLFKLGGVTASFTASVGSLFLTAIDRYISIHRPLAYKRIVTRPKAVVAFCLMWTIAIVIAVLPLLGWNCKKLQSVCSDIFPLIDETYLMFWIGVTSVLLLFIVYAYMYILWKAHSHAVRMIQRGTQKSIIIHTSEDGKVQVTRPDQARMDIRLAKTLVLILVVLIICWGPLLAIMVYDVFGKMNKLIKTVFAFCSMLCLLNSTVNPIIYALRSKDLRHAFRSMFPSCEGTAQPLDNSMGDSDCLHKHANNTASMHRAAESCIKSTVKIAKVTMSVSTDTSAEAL
UniProt P34972, whole entry: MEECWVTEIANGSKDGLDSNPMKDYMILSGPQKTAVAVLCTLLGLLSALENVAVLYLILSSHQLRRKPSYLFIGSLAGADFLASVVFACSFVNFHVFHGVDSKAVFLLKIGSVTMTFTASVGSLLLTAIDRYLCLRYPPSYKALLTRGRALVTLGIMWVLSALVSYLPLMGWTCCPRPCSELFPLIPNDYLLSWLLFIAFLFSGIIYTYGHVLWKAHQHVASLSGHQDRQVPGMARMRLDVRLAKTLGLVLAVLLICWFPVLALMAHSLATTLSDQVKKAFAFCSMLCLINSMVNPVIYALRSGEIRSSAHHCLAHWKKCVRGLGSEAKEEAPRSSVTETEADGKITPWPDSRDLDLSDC

pKi: −log10 of the molar value.

The pKi is the Ki on a negative log10 scale, so that one unit is a factor of ten. Regarding `CCCCC/C=C\C/C=C\C/C=C\C/C=C\CCCC(=O)OC(CO)CO` [2-ARACHIDONOYLGLYCEROL], the pKi in assay [1] was 6.33.

For `COCCn1c(C)c(C)s/c1=N\C(=O)C1C(C)(C)C1(C)C`, the Ratio Ki in assay [2] is 425.

As for `C=C(C)[C@@H]1CCC(C)=C[C@H]1c1c(O)cc(CCCCC)cc1O` [CANNABIDIOL], the pKi in assay [3] was 5.54.

As for `CCCCCCC(C)(C)c1cc(OC)c([C@H]2C=C(CO)[C@H]3C[C@@H]2C3(C)C)c(OC)c1`, in assay [4], the pKi is 7.64.

For the origin of these results see ChEMBL document CHEMBL3232786, “Therapeutic utility of cannabinoid receptor type 2 (CB(2)) selective agonists” (J Med Chem, 2013).
